From US12295963B2, “Treating pain associated with diabetic peripheral neuropathy” (MEDICON PHARMACEUTICALS, INC., priority 2021, dated 2025)

Tests used:
[1] = test system: mechanical allodynia in STZ-induced DPN rats; assay: Treatment of neuropathic pain in STZ-induced rat model of DPN, paw withdrawal threshold (von Frey filaments); type: in vivo, Sprague-Dawley rats; conditions: treatment protocol from week 4, sulindac 0.7% hydrogel topical 3 times a day for 1 week (PWT week 5), lidocaine 5% cream once 30 min before PWT, pregabalin 10 mg/kg oral once 1 h before PWT
Method: DPN was induced via chemically-induced increases in blood glucose in rats, using streptozotocin (STZ). This is a well-established model for DPN (see Morrow, Current Protocols in Neuroscience (2004); 29(1): 1-11), in which the STZ, an antibiotic extract from Streptomyces acromogenes, selectively damages the β cells of the pancreas.
Sprague-Dawley rats were fasted for 4-6 hours before being injected intraperitoneally with 45 mg/kg STZ. This was performed for all experimental groups, except the naïve group. In order to prevent hypoglycaemic death, rats received 10% sucrose water as the sole water source for the first 48 hours after injection. In order to ensure only those rats considered diabetic (i.e., having non-fasting plasma glucose levels of >250 mg/dL) were included in the study, blood glucose was measured at 72 hours after the STZ injection.
This delay between STZ injection and treatment allows the establishment of chronic pain (allodynia) associated with peripheral and central sensitisation. PS (as an 8% hydrogel) or vehicle control were administered topically to both hind paws of the rats 3 times a day for 3 weeks starting at week 4 after STZ injection. […]
In order to determine the outcome of the treatment, mechanical allodynia was measured using the well-established method of von Frey filaments. […] The results of the PWT test are expressed as force applied (gm). […]

[2] = Pharmacokinetics and biodistribution of PS and its metabolites after topical administration to hind paws
Method: PS 8% ointment was applied topically to each hind paw (50 μl per paw) with gentle rubbing. At 0.5, 1, 3, 5, 12, 18, and 24 h, mice (n=4-5 mice/time point) were euthanized with CO2 inhalation. Blood was drawn immediately after death. Tissues, including paw skin, paw muscle, leg muscle, the sciatic nerve and lumbar DRG bilaterally were dissected quickly, immediately frozen in liquid nitrogen and stored at −80° C. until analyzed.
Following addition of acetonitrile (twice the volume of the homogenate), the mixture was sonicated for 10 min, centrifuged at 13,200 rpm for 15 min, and analyzed by HPLC, as reported (Wen et al., 2019).
Since the metabolism and PK/biodistribution of PS vary depending on its route of administration, we studied both in normal mice in which PS was administered topically to their hind paws, with particular attention to the sciatic nerve and the dorsal root ganglia (DRG) that are affected in DPN.

| SMILES | PWT, gm Mean ± SEM [1] [gm] | detection as metabolite of PS ([2]; mouse tissues and blood after PS 8% ointment topical, HPLC, limit of quantitation 0.05 μM) | sulindac levels relative to those of PS ([2]; mouse, in vivo) | sulindac levels relative to those of PS ([2]; sciatic nerve, compared with around 25% in the other tissues, result in words) |
| --- | --- | --- | --- | --- |
| CC(C)C[C@H](CN)CC(=O)O [pregabalin] | 27.3 ± 1.7 | – | – | – |
| CC1=C(CC(=O)O)c2cc(F)ccc2/C1=C\c1ccc([S+](C)[O-])cc1 (stereo not shown) [sulindac] | – | detected | equal | higher |
